Source: patent US7285556B2, “Thienopyrimidine-based inhibitors of the src family” (Board of Regents, The University of Texas Systems, priority 2000, dated 2007)

Sequences of proteins named here, by UniProt entry; tags and fusion partners are left off. Residues count along the entry.
UniProt P41240, whole entry: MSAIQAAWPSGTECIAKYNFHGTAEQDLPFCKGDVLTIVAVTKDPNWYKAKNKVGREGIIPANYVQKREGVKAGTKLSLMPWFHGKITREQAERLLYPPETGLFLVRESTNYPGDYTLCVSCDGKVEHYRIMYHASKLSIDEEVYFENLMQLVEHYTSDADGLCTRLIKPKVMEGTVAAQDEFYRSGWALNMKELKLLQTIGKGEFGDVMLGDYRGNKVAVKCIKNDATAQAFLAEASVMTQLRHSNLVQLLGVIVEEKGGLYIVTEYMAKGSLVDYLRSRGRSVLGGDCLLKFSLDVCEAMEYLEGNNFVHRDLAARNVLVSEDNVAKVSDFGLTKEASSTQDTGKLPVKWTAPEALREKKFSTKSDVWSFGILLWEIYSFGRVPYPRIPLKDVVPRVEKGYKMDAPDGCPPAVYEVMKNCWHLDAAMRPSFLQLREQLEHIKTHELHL
UniProt P11362, 398-822 limits assumed: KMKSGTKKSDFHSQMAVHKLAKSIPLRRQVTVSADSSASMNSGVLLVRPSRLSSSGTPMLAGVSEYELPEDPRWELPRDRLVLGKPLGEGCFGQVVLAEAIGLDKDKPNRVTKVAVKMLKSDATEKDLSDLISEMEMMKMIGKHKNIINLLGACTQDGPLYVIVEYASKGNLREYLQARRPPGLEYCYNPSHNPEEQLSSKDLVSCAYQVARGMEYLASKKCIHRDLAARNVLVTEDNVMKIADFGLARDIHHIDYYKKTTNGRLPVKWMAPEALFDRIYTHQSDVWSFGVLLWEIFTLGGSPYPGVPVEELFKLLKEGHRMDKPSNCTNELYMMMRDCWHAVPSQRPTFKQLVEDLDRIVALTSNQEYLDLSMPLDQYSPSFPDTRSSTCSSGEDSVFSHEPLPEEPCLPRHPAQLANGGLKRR
UniProt P12931, whole entry: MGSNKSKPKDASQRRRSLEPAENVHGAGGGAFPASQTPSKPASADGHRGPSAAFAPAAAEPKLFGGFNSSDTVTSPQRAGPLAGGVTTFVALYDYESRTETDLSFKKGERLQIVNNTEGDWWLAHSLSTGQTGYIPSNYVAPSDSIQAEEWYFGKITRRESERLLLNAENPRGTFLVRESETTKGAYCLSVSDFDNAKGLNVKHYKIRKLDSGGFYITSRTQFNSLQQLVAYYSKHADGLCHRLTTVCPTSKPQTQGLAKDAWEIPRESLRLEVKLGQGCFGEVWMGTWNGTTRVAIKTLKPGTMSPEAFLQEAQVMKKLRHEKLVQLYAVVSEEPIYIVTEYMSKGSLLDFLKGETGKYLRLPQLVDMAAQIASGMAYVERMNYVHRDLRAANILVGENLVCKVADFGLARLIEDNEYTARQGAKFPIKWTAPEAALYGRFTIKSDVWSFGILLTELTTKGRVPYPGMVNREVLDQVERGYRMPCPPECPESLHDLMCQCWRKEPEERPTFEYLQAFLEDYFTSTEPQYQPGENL

Assays:
Conditions in all cases: screening assay, 50 μg/ml poly E4Y, 0.2 mM 32P-ATP
Csk = Csk (Homo sapiens, UniProt P41240); assay: Csk tyrosine kinase activity, poly E4Y and 32P-ATP
FGF receptor (FGFr) = FGF receptor (FGFr) (Homo sapiens, UniProt P11362); assay: FGFr tyrosine kinase activity, poly E4Y and 32P-ATP; format: biochemical
Protocol: Recombinant human Src was expressed using the baculovirus-insect cell system and purified as published (Budde et al., 1993 and 2000). Recombinant Csk and the FGF receptor (FGFr) were expressed as glutathione-S-transferase fusion proteins using the pGEX expression vector and E. coli, and purified as described (Sun & Budde, 1995). The tyrosine kinase activity of Src, Csk and FGFr was determined using poly E4Y and ^32P-ATP. Briefly, enzymes were assayed in a reaction mixture consisting of 0.15 M EPPS-NaOH (pH 8.0) with 6 mM MgCl2, 0.2 mM γ^32P-ATP (0.2-0.4 mCi/μmol), 10% glycerol, 0.1% Triton X-100, and poly E4Y. Poly E4Y is a synthetic peptide whose phosphorylation is measured in this assay by the addition of the radioactively labeled phosphate from the ATP (Budde et al., 1995). […] When ATP was varied (0, 50, 100 and 250 μM), poly E4Y was kept constant at 150 μg/ml. […] From this screening, the thienopyrimidine-based scaffold was identified as one of the chemical structures to pursue. […] These analogues were screened against Src, Csk and FGFr (Table 2, Table 3, and Table 4).

Recombinant human Src = Recombinant human Src (Homo sapiens, UniProt P12931); assay: Src tyrosine kinase activity, poly E4Y and 32P-ATP

| Structure (SMILES) | Csk IC50 (Csk) | FGFr IC50 (FGF receptor (FGFr)) | Src IC50 (Recombinant human Src) |
| --- | --- | --- | --- |
| Cc1csc2c(NN=CCCc3ccccc3)ncnc12 | NI (NI = no inhibition up to 50 ug/mL) | NI (NI = no inhibition up to 50 ug/mL) |  |
| Cc1csc2c(NN=CCC(C)C)ncnc12 | NI (NI = no inhibition up to 50 ug/mL) | NI (NI = no inhibition up to 50 ug/mL) |  |
| Cc1csc2c(N(C)N=Cc3ccc(F)cc3)ncnc12 | NI (NI = no inhibition up to 50 ug/mL) | NI (NI = no inhibition up to 50 ug/mL) | NI (NI = no inhibition up to 50 ug/mL) |
| Cc1csc2c(NN=Cc3cc([N+](=O)[O-])ccc3Cl)ncnc12 | NI (NI = no inhibition up to 50 ug/mL) | NI (NI = no inhibition up to 50 ug/mL) | NI (NI = no inhibition up to 50 ug/mL) |
| CCCCOc1ccc(C=NNc2ncnc3c(C)csc23)cc1 | NI (NI = no inhibition up to 50 ug/mL) | NI (NI = no inhibition up to 50 ug/mL) |  |
| Cc1csc2c(NN=Cc3c(Cl)cccc3[N+](=O)[O-])ncnc12 | NI (NI = no inhibition up to 50 ug/mL) | NI (NI = no inhibition up to 50 ug/mL) | NI (NI = no inhibition up to 50 ug/mL) |
| C(=NNc1ncnc2c(-c3ccccc3)csc12)c1cccnc1 | NI (NI = no inhibition up to 50 ug/mL) | NI (NI = no inhibition up to 50 ug/mL) | NI (NI = no inhibition up to 50 ug/mL) |

The next lines start with the values.

| Csk IC50 (Csk) | FGFr IC50 (FGF receptor (FGFr)) | Src IC50 (Recombinant human Src) | Structure (SMILES) |
| --- | --- | --- | --- |
|  | NI (NI = no inhibition up to 50 ug/mL) |  | COc1ccc(C=NNc2ncnc3cc(-c4ccc(F)cc4)sc23)cc1O |
| NI (NI = no inhibition up to 50 ug/mL) | NI (NI = no inhibition up to 50 ug/mL) |  | COc1ccc(C=NNc2ncnc3cc(-c4cccc(Cl)c4)sc23)cc1O |
| NI (NI = no inhibition up to 50 ug/mL) | NI (NI = no inhibition up to 50 ug/mL) |  | Fc1ccc(-c2cc3ncnc(NN=Cc4cccs4)c3s2)cc1 |
| NI (NI = no inhibition up to 50 ug/mL) | NI (NI = no inhibition up to 50 ug/mL) |  | Cc1csc2c(NN=Cc3ccc(Cl)c([N+](=O)[O-])c3)ncnc12 |
| NI (NI = no inhibition up to 50 ug/mL) | NI (NI = no inhibition up to 50 ug/mL) | NI (NI = no inhibition up to 50 ug/mL) | COc1ccc(OC)c(C=NNc2ncnc3c(C)csc23)c1 |
| NI (NI = no inhibition up to 50 ug/mL) | NI (NI = no inhibition up to 50 ug/mL) | NI (NI = no inhibition up to 50 ug/mL) | COc1cccc(C=NNc2ncnc3c(C)csc23)c1OC |
| NI (NI = no inhibition up to 50 ug/mL) | NI (NI = no inhibition up to 50 ug/mL) |  | COc1ccc(C=NNc2ncnc3cc(-c4ccc(Cl)cc4)sc23)cc1O |
| NI (NI = no inhibition up to 50 ug/mL) | NI (NI = no inhibition up to 50 ug/mL) | NI (NI = no inhibition up to 50 ug/mL) | Fc1ccc(-c2csc3c(NN=Cc4cccnc4)ncnc23)cc1 |
